In test [1] the target is T1, PAF receptor (Homo sapiens, UniProt P25105).
T1 construct: from tissue; host or cells: human platelet membranes
Nature of the test: [3H]‐PAF binding to human platelet membranes. Particulars: read-out: [3H]‐PAF receptor binding inhibition constant (Ki, nM; Mean ± SEM). The text has this: FIGURE 5 Pharmacological profile of PAR receptor binding to platelet membranes.

Protein sequences, listed by entry. Tags and fused reporters are not part of them. Lines headed by an entry give the natural chain unless they say otherwise; changes in a name come on top.
UniProt P25105: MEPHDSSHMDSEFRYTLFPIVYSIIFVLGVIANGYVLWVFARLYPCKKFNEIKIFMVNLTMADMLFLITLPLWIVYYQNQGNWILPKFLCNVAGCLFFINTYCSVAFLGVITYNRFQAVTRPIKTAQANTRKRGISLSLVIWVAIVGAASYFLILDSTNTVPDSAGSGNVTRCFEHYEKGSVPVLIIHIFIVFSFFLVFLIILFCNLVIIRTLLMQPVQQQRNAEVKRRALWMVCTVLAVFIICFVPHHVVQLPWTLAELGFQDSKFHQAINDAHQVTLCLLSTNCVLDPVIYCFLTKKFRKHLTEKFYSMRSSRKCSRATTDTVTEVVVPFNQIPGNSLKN

Test [2] has as its target T1, PAF receptor. Nature of the test: [3H]‐WEB‐2086 binding to human platelet membranes. The settings on record: read-out: [3H]‐WEB‐2086 binding inhibition constant (Ki, nM; Mean ± SEM). The text has this:
TABLE 2 [^3H]‐PAF and [^3H]‐WEB‐2086 binding inhibition constants obtained from human platelet membranes. | column: [^3H]‐WEB‐2086 binding inhibition constant (K i , nM; Mean ± SEM)

The Ki is the equilibrium dissociation constant of an inhibitor or competing ligand from its target. Regarding `CCCCCCCCCCCCCCCCCCNC(=O)OCC(COC(=O)N(Cc1cccc[n+]1CC)C(C)=O)OC` (centres unmarked) [CV‐6209], the figures for the Ki on PAF receptor [1] and on PAF receptor [2] were 215 ± 12.9 nM and 66.3 ± 11.3 nM, respectively.

(Values after paper PMC10084252, “PAF‐induced inflammatory and immuno‐allergic ophthalmic diseases and their mitigation with PAF receptor antagonists: Cell and nuclear effects” (Biofactors (Oxford, England), 2022).)
